From US11396531B2, “Antimicrobial peptides comprising epsilon lysine residues” (priority 2016, dated 2022)

Experiments:
[1] = test system: primary human dermal fibroblasts (HDFs); assay: MTS cytotoxicity assay; settings: for Peptide concentration required to impart cytotoxic effect: MTS assay, primary human fibroblasts; for Cytotoxicity for HDFs: Table 7
Procedure: MTS ((3-(4,5-dimethylthiazol-2-yl)-5-(3-carboxymethoxyphenyl)-2-(4-sulfophenyl)-2H-tetrazolium)) assay and high content analysis (HCA) were performed to elucidate the effect of various polymers on metabolic activity and morphological parameters of cultured human dermal fibroblasts (hDF), respectively as described previously. The antineoplastic agent, nocodazole (5 μg/ml), served as the […] control whereas cells treated with PBS served as positive control. The average values from three independent triplicate experiments are reported. Cells were cultured in 96-well plates and scanned (16 randomly selected fields/well) using an automated microscope IN Cell Analyzer 2200 (GE Healthcare). The multi-parametric cytotoxicity bio-application module of the IN Cell Investigator software (GE Healthcare) was used in quantitative estimations and morphotypic analysis of acquired images, which were automatically converted into color-coded heatmaps using Spotrfire® software.
Human dermal fibroblast cells were seeded in 96-well plates (2×10^3 cells/well) and incubated for 24 h at 37° C. and 5% CO2. Cells were then treated with various concentrations of polymers or peptides (62.5 μg/ml-1 mg/ml. At the end of the treatment period (after 24 h), 20 or 50 μl of MTS tetrazolium solution was added into 96-well or 12-well plates and further incubated for 2 h at 37° C. Subsequently, the absorbance was measured at 490 nm using a microplate reader (Infinite M200 Pro, Tecan, Switzerland) and the relative cell viability was calculated. Each treatment was performed in two triplicates and reported.
The cytotoxicity of peptides and polymers were determined using CellTier 96® Aqueous One solution cell proliferation assay kit according to the manufacturer's instruction (Promega Corporation, Madison, Wis.). This assay evaluates mitochondrial function by measuring ability of viable cells to reduce MTS ((3-(4,5-dimethylthiazol-2-yl)-5-(3-carboxymethoxyphenyl)-2-(4-sulfophenyl)-2H-tetrazolium)) into a quantifiable […] formazan product. HDFs were seeded in 96-well plates (2×10^3 cells/well) and incubated for 24 h at 37° C. and 5% CO2. Cells were then treated with a concentrated stock solution of polymers (final concentration 62.5-2000 μg/ml in the well) or peptides (final concentration 4-1000 μg/ml in the well). After 24 h, 20 μl of MTS tetrazolium solution was added into 96-well well plates and further incubated for 2 h at 37° C. Subsequently, the absorbance was measured at 490 nm using a microplate reader (Infinite M200 Pro, Tecan, Switzerland) and the relative cell viability was calculated relative to untreated control (10 mM PBS, pH 7.0). Each treatment was performed in two triplicates and reported.

C. albicans = settings: Table 4, range over 5 strains
Procedure: (§1) MIC of cationic polymers and polypeptide were tested in accordance with the Clinical and Laboratory Standards Institute (CLSI) guidelines against a panel of antibiotic-susceptible/-resistant bacteria, yeasts and fungal strains. Bacterial and yeast strains were cultured on tryptic soy agar (TSA) and Sabaroud dextrose agar (SDA) plates (Neogen Corporation, MI, USA) overnight respectively. Inocula in Mueller-Hinton broth (MHB) for bacteria and SD broth for C. albicans (Beckton Dickinson, MD, USA) were prepared at 0.5 McFarland. The suspensions were then diluted to a final concentration of 10^5 CFU/ml in a 96-well microtitre plate (SPL Life Sciences Co., Ltd, Korea). […] The antimicrobial activities were compared with topical antiseptic agents, BAK and CHX. A similar protocol was used to determine the MIC of εPL against antibiotic-resistant pathogens. MIC of the polymers and polypeptides against Fusarium strains was determined in full strength RPMI-1640 buffer. Fungal spores were recovered from a 5-day old culture on a potato dextrose agar and diluted to a concentration of 10^5 spores/ml in 0.9% saline solution. A further 50-fold dilution was done in RPMI-1640 buffer and 100 μl of the inoculum was added to 96 well plates containing an equal volume of test peptides at 2-fold serial dilutions. 200 μl of inoculum without any additives and buffer alone served as positive and negative controls, respectively. The plate was then incubated at 30° C. for 48 h. The absorbance value was measured at 600 nm as before and the lowest concentration of the peptide which inhibited 90% growth was reported. All MIC determinations were performed in duplicates.
(§2) MICs of polymers/antibiotics were determined using the microdilution method in 96 well microtitre plates (SPL Life Sciences Co., Ltd, Korea), following the guidelines of Clinical and Laboratory Standards Institute (CLSI) document M100-S18. Briefly, polymers (1-512 μg/ml) or antibiotics were dissolved in appropriate media (Mueller Hinton broth, MHB for bacteria; Sabaroud's Dextrose (SD) broth for yeasts and RPMI buffer for Fusarium strains) and 100 μl of this was then mixed with an equal volume of microbial inoculum (OD600=˜0.08) in the same media and shaken in a closed incubator.

S. aureus or MRSA = assay type: cell-based, Staphylococcus aureus; settings: Table 4, range over 5 strains
Procedure: as §1, with “Korea). Polymers and polypeptides were added to the inoculum in 2-fold serial dilutions to give a range of concentrations from 2-1024 μg/ml.” for “Korea).”
as §2

[2] = Calcein dye leakage from mammalian model LUVs; settings: peptide:lipid ratio 0.0625
Procedure: To obtain an insight into the mechanism of membrane discrimination, large unilamellar vesicles (LUVs) which mimic the cytoplasmic membrane of mammalian (PC/Cholesterol) and microbial (PE:PG) cells were used. […] More dramatic results were observed when the experiments were carried out on PC/Cholesterol LUVs.

P. aeruginosa = assay type: cell-based, Pseudomonas aeruginosa; settings: Table 4, range over 5 strains
Procedure: as §1, with “Korea). Polymers and polypeptides were added to the inoculum in 2-fold serial dilutions to give a range of concentrations from 2-1024 μg/ml.” for “Korea).”
as §2

S. epidermidis 12228 = settings: S. epidermidis 12228, Table 5
Procedure: as §1, §2

B. subtilis ATCC 6633 = settings: B. subtilis ATCC 6633, Table 5
Procedure: as §1, §2

[3] = test system: Vancomycin-resistant Enterococcus (VRE); settings: VRE (n = 21), 90% of strains susceptible, Table 7
Procedure: as §1, §2

[4] = test system: Carbapenam-resistant Enterobacter strains (CRE); settings: CRE (n = 19), 50% of strains susceptible, Table 7
Procedure: as §1, §2

A. baumannii = settings: A. baumanii (n = 10), 90% of strains susceptible, Table 7
Procedure: as §1, §2

| SMILES | Cytotoxicity (in μg/ml) for HDFs ([1]; Concentration at which complete cytotoxicity was observed in MTS and HCA) [µg/mL] | MIC against C. albicans (n = 5) (C. albicans) [µg/mL] | MIC against S. aureus or MRSA (n = 5) (S. aureus or MRSA) [µg/mL] | dye leakage from PC/Cholesterol LUVs [2] [%] | MIC against P. aeruginosa (n = 5) (P. aeruginosa) [µg/mL] | MIC (S. epidermidis 12228) [µg/mL] | MIC (B. subtilis ATCC 6633) [µg/mL] | Peptide concentration required to impart cytotoxic effect [1] [µg/mL] | Cytotoxicity for HDFs [1] [µg/mL] | MIC90 [3] | MIC50 [4] | MIC90 (A. baumannii) |
| --- | --- | --- | --- | --- | --- | --- | --- | --- | --- | --- | --- | --- |
| CC[C@H](C)[C@H](NC(=O)CN)C(=O)NCC(=O)N[C@@H](C)C(=O)N[C@H](C(=O)N[C@@H](CC(C)C)C(=O)N[C@@H](CCCCN)C(=O)N[C@H](C(=O)N[C@@H](CC(C)C)C(=O)N[C@H](C(=O)N[C@H](C(=O)NCC(=O)N[C@@H](CC(C)C)C(=O)N1CCC[C@H]1C(=O)N[C@@H](C)C(=O)N[C@@H](CC(C)C)C(=O)N[C@H](C(=O)N[C@@H](CO)C(=O)N[C@@H](Cc1c[nH]c2ccccc12)C(=O)N[C@H](C(=O)NCCCC[C@H](N)C(=O)N[C@@H](CCCNC(=N)N)C(=O)N[C@@H](CCCCN)C(=O)N[C@@H](CCCNC(=N)N)C(=O)N[C@@H](CCC(N)=O)C(=O)N[C@@H](CCC(N)=O)C(N)=O)[C@@H](C)CC)[C@@H](C)CC)[C@@H](C)O)[C@@H](C)O)C(C)C)C(C)C [Peptide 2] | 32 | 4 to 8 | 4 to 8 | ~70 | 4 to 16 | – | – | – | – | – | – | – |
| CC[C@H](C)[C@H](NC(=O)CN)C(=O)NCC(=O)N[C@@H](C)C(=O)N[C@H](C(=O)N[C@@H](CC(C)C)C(=O)N[C@@H](CCCCN)C(=O)N[C@H](C(=O)N[C@@H](CC(C)C)C(=O)N[C@H](C(=O)N[C@H](C(=O)NCC(=O)N[C@@H](CC(C)C)C(=O)N1CCC[C@H]1C(=O)N[C@@H](C)C(=O)N[C@@H](CC(C)C)C(=O)N[C@H](C(=O)N[C@@H](CO)C(=O)N[C@@H](Cc1c[nH]c2ccccc12)C(=O)N[C@H](C(=O)N[C@@H](CCCCN)C(=O)N[C@@H](CCCNC(=N)N)C(=O)N[C@@H](CCCCN)C(=O)N[C@@H](CCCNC(=N)N)C(=O)N[C@@H](CCC(N)=O)C(=O)N[C@@H](CCC(N)=O)C(N)=O)[C@@H](C)CC)[C@@H](C)CC)[C@@H](C)O)[C@@H](C)O)C(C)C)C(C)C [Melittin, reference compound] | – | – | – | – | 4 to 16 | 4 (≈ 1.41 µM) | 32 (≈ 11.2 µM) | – | – | – | – | – |
| CC[C@H](C)[C@H](NC(=O)[C@H](CO)NC(=O)[C@@H](N)CCCCNC(=O)[C@H](CC(C)C)NC(=O)[C@H](CCCCN)NC(=O)[C@@H](N)CC(C)C)C(=O)N[C@H](C(=O)N[C@@H](CO)C(=O)N[C@@H](Cc1c[nH]c2ccccc12)C(=O)N[C@@H](C)C(=O)N[C@@H](CCCCN)C(=O)N[C@@H](CCCCN)C(=O)N[C@H](C(=O)N[C@@H](CC(C)C)C(N)=O)C(C)C)C(C)C [MB-2, LKLKSIVSWAKKVL] | – | – | – | – | – | – | – | 1000 | 1000 | (MIC90 = 8) μg/ml | (MIC50 = 64) μg/ml | (MIC90 = 8) μg/ml |
| CC[C@H](C)[C@H](NC(=O)[C@H](CO)NC(=O)[C@H](CCCCN)NC(=O)[C@H](CC(C)C)NC(=O)[C@@H](N)CCCCNC(=O)[C@@H](N)CC(C)C)C(=O)N[C@H](C(=O)N[C@@H](CO)C(=O)N[C@@H](Cc1c[nH]c2ccccc12)C(=O)N[C@@H](C)C(=O)N[C@@H](CCCCN)C(=O)N[C@@H](CCCCN)C(=O)N[C@H](C(=O)N[C@@H](CC(C)C)C(N)=O)C(C)C)C(C)C [MB-1, LKLKSIVSWAKKVL] | – | – | – | – | – | – | – | 250 | 250 | (MIC90 = 8) μg/ml | (MIC50 = 32) μg/ml | (MIC90 = 8) μg/ml |
| CC[C@H](C)[C@H](NC(=O)[C@H](CO)NC(=O)[C@H](CCCCN)NC(=O)[C@H](CC(C)C)NC(=O)[C@H](CCCCN)NC(=O)[C@@H](N)CC(C)C)C(=O)N[C@H](C(=O)N[C@@H](CO)C(=O)N[C@@H](Cc1c[nH]c2ccccc12)C(=O)N[C@@H](C)C(=O)N[C@@H](CCCCN)C(=O)NCCCC[C@H](N)C(=O)N[C@H](C(=O)N[C@@H](CC(C)C)C(N)=O)C(C)C)C(C)C [MB-4, LKLKSIVSWAKKVL] | – | – | – | – | – | – | – | > 1000 | >1000 | (MIC90 = 128) μg/ml | (MIC50 = 64) μg/ml | – |
| CC[C@H](C)[C@H](NC(=O)[C@H](CO)NC(=O)[C@H](CCCCN)NC(=O)[C@H](CC(C)C)NC(=O)[C@H](CCCCN)NC(=O)[C@@H](N)CC(C)C)C(=O)N[C@H](C(=O)N[C@@H](CO)C(=O)N[C@@H](Cc1c[nH]c2ccccc12)C(=O)N[C@@H](C)C(=O)NCCCC[C@H](N)C(=O)N[C@@H](CCCCN)C(=O)N[C@H](C(=O)N[C@@H](CC(C)C)C(N)=O)C(C)C)C(C)C [MB-3, LKLKSIVSWAKKVL] | – | – | – | – | – | – | – | 1000 | 1000 | (MIC90 = 128) μg/ml | (MIC50 = 64) μg/ml | – |

In brackets after ≈: the same amount, converted by molar mass.
